Test results from publication PMC9848257, “Design and synthesis of novel rigid dibenzo[b,f]azepines through ring closure technique as promising anticancer candidates against leukaemia and acting as selective topoisomerase II inhibitors and DNA intercalators” (Journal of Enzyme Inhibition and Medicinal Chemistry, 2023).

Target: topoisomerase II
Assay: Topoisomerase II inhibitory assay
Assay type: biochemical
Settings: in vitro, doxorubicin co-assayed as reference
Protocol: All the promising anticancer closed analogues (5a–g) were then investigated to measure the topoisomerase II inhibitory effect using the reported procedure by Patra et al.[36] and doxorubicin as a reference drug.
Therefore, following the procedure reported by Patra et al., the topoisomerase II activity was evaluated. Doxorubicin, an FDA-approved topoisomerase II inhibitor, was co-assayed as a reference. The IC50 values of the tested congeners and doxorubicin were recorded and represented in Table 2.

With `COc1cccc2c1C(=O)c1c(O)c3c(c(O)c1C2=O)C[C@@](O)(C(=O)CO)C[C@@H]3O[C@H]1C[C@H](N)[C@H](O)[C@H](C)O1` [Doxorubicin, reference compound] the IC50 was 3.45 µM and the IC50 (listed as doxorubicin) was 3.44 ± 0.19 µM.
